Test results reported in patent publication EP0944648B1, “GLP-1 DERIVATIVES” (NOVO NORDISK A/S, priority 1996, dated 1998).
pEC50: −log10 of the molar value.

By UniProt entry, the sequences of proteins in these tests, tags left out. Residues count along the entry.
UniProt P43220, 24-463: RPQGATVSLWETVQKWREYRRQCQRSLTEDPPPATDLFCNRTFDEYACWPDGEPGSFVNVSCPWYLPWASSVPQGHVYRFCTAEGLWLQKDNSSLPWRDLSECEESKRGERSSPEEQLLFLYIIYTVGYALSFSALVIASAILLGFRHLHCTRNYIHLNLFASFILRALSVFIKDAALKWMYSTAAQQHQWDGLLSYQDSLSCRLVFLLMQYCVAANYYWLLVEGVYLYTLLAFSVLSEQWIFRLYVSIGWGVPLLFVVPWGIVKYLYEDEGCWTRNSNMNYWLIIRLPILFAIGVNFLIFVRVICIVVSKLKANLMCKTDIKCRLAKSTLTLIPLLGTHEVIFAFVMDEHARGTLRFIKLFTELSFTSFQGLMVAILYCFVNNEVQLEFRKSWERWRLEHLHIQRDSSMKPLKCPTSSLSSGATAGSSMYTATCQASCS

Key:
[1] = Protraction after s.c. administration: plasma concentration in pigs determined by RIA; assay type: in vivo; settings: 0.5 nmol/kg, healthy pigs, n=2
Method: The protraction of a number GLP-1 derivatives of the invention was determined by monitoring the concentration thereof in plasma after sc administration to healthy pigs, using the method described below. […]. The protraction of other GLP-1 derivatives of the invention can be determined in the same way.
Pigs (50% Duroc, 25% Yorkshire, 25% Danish Landrace, app 40 kg) were fasted from the beginning of the experiment. To each pig 0.5 nmol of test compound per kg body weight was administered in a 50 µM isotonic solution (5 mM phosphate, pH 7.4, 0.02% Tween®-20 (Merck), 45 mg/ml mannitol (pyrogen free, Novo Nordisk). Blood samples were drawn from a catheter in vena jugularis at the hours indicated in Table 1. 5 ml of the blood samples were poured into chilled glasses containing 175 µl of the following solution: 0.18 M EDTA, 1500 KIE/ml aprotinin (Novo Nordisk) and 3% bacitracin (Sigma), pH 7.4. Within 30 min, the samples were centrifuged for 10 min at 5-6000*g. Temperature was kept at 4°C. The supernatant was pipetted into different glasses and kept at minus 20°C until use.
[…]. The cross reactivities were less than 1% with GLP-1(1-37) and GLP-1(8-36)amide and < 0.1% with GLP-1 (9-37), GLP-1(10-36)amide and GLP-1 (11-36)amide. The entire procedure was carried out at 4°C.
The assay was carried out as follows: 100 µl plasma was mixed with 271 µl 96% ethanol, mixed using a vortex mixer and centrifuged at 2600*g for 30 min. The supernatant was decanted into Minisorp tubes and evaporated completely (Savant Speedvac AS290). The evaporation residue was reconstituted in the assay buffer consisting of 80 mM NaH2PO4/Na2HPO4, 0.1 % HSA (Orpha 20/21, Behring), 10 mM EDTA, 0.6 mM thiomersal (Sigma), pH 7.5. Samples were reconstituted in volumes suitable for their expected concentrations, and were allowed to reconstitute for 30 min. To 300 µl sample, 100 µl antibody solution in dilution buffer containing 40 mM NaH2PO4/Na2HPO4, 0.1 % HSA, 0.6 mM thiomersal, pH 7.5, was added. A non-specific sample was prepared by mixing 300 µl buffer with 100 µl dilution buffer. Individual standards were prepared from freeze dried stocks, dissolved in 300 µl assay buffer. All samples were pre-incubated in Minisorp tubes with antibody as described above for 72 h. 200 µl tracer in dilution buffer containing 6-7000 CPM was added, samples were mixed and incubated for 48 h. 1.5 ml of a suspension of 200 ml per litre of heparin-stabilised bovine plasma and 18 g per litre of activated carbon (Merck) in 40 mM NaH2PO4/Na2HPO4, 0.6 mM thiomersal, pH 7.5, was added to each tube. Before use, the suspension was mixed and allowed to stand for 2 h at 4°C. All samples were incubated for 1 h at 4°C and then centrifuged at 3400*g for 25 min. Immediately after the centrifugation, the supernatant was decanted and counted in a γ-counter. The concentration in the samples was calculated from individual standard curves. The following plasma concentrations were found, calculated as % of the maximum concentration for the individual compounds (n=2): Table 1

[2] = biological target: cloned human GLP-1 receptor (Homo sapiens, UniProt P43220); settings: cAMP formation; membrane preparation incubated 2 h at 37°C; 0.1 % human serum albumin
[3] = in humans; cited from earlier work
[4] = 0.75 hours after sc. administration
[5] = 1 hour after sc. administration
[6] = 2 hours after sc. administration
[7] = 4 hours after sc. administration
[8] = 6 hours after sc. administration
[9] = 8 hours after sc. administration
[10] = 10 hours after sc. administration
[11] = 24 hours after sc. administration
[12] = 12 hours after sc. administration

| Substance | plasma concentration, calculated as % of the maximum concentration for the individual compound [1, 4] [%] | plasma concentration, calculated as % of the maximum concentration for the individual compound [1, 5] [%] | plasma concentration, calculated as % of the maximum concentration for the individual compound [1, 6] [%] | plasma concentration, calculated as % of the maximum concentration for the individual compound [1, 7] [%] | plasma concentration, calculated as % of the maximum concentration for the individual compound [1, 8] [%] | plasma concentration, calculated as % of the maximum concentration for the individual compound [1, 9] [%] | plasma concentration, calculated as % of the maximum concentration for the individual compound [1, 10] [%] | plasma concentration, calculated as % of the maximum concentration for the individual compound [1, 11] [%] | plasma concentration, calculated as % of the maximum concentration for the individual compound [1, 12] [%] | pEC50 [2] | plasma half-life [3] [min] |
| --- | --- | --- | --- | --- | --- | --- | --- | --- | --- | --- | --- |
| Arg^26,34Lys^36 (N^ε-(ω-carboxyheptadecanoyl))-GLP-1 (7-36)-OH [Example 14] | 18 | 25 | 32 | 47 | 98 | 83 | 97 | 100 | – | – | – |
| Arg^26,34Lys^36 (N^ε-(ω-carboxyheptadecanoyl))-GLP-1 (7-37)-OH [Example 12] | 36 | 54 | 65 | 94 | 80 | 100 | 85 | 93 | – | – | – |
| Arg^26,34Lys^38(N^ε-(γ-glutamyl(N^α-tetradecanoyl)))-GLP-1 (7-38)-OH [Example 38] | 60 | 53 | 100 | 66 | 48 | 39 | 25 | 0 | 29 | – | – |
| Arg^26,34Lys^38(N^ε-(ω-carboxyheptadecanoyl))-GLP-1 (7-38)-OH [Example 13] | 15 | 22 | 38 | 59 | 97 | 85 | 100 | 76 | – | – | – |
| Arg^26,34Lys^38(N^ε-(ω-carboxypentadecanoyl))-GLP-1 (7-38)-OH [Example 34] | 19 | 32 | 44 | 84 | 59 | 66 | 83 | 100 | 84 | – | – |
| Arg^34Lys^26 (N^ε-(ω-carboxyheptadecanoyl))-GLP-1 (7-37)-OH [Example 11] | 24 | 47 | 59 | 71 | 100 | 94 | 100 | 94 | – | – | – |
| Arg^34Lys^26(N^ε-(γ-glutamyl(N^α-hexadecanoyl)))-GLP-1(7-37)-OH [Example 37] | – | 26 | 38 | 97 | 100 | 71 | 81 | 45 | 80 | 10.22 | – |
| Lys^26,34-bis(N^ε-(ω-carboxytridecanoyl))-GLP-1 (7-37)-OH [Example 32] | 55 | 53 | 90 | 83 | 88 | 70 | 98 | 100 | 100 | – | – |
| Lys^26,34bis(N^ε-(ω-carboxyundecanoyl))-GLP-1(7-37)-OH [Example 17] | 76 | 71 | 91 | 100 | 84 | 68 | 30 | 9 | – | – | – |
| glucagon-like peptide-1 [GLP-1] | – | – | – | – | – | – | – | – | – | – | 2 |
